Test results published in US5411733A (priority 1992, dated 1995).

Tested on: CMV
Type: cell-based

Row | SMILES | influence on CMV proliferation
1 | Cn1cnc([N+](=O)[O-])c1Sc1ncnc2nc[nH]c12 [azathioprine] | inhibited CMV proliferation
2 | C[C@]12C=CC(=O)C=C1CC[C@@H]1[C@@H]2[C@@H](O)C[C@@]2(C)[C@H]1CC[C@]2(O)C(=O)CO [predonine] | accelerated CMV proliferation
